Results: patent publication EP0314008A2, “N-substituted aliphatic heterocyclic compounds able to facilitate the passage of active substances through physiological barriers” (priority 1987, dated 1989)

System: histamine
Test: Test 73 - Antihistaminic (in vitro), isolated ileal segments
Format: cell-based, guinea pig
Details: Cavia porcellus; Dose 25 γ/ml; contractile response to histamine (0.5 mcg/ml)
From the text: Test 73 - Antihistaminic (in vitro):
Inhibition of submaximal contractile responses of isolated guinea pig ileal segments, bathed in physiological salt solution, to histamine (0.5 mcg/ml) by more than 80 percent (>80) indicates activity.

**Q.** For `CC(C)(C)c1ccc(C(O)CCCN2CCC(C(O)(c3ccccc3)c3ccccc3)CC2)cc1` (stereo not shown) [Terfenadine, reference compound], which inhibition at 25 µg/mL is on record?
**A.** 83%
